Measured values published in EP1961762A1, “Inhibitors of protein phosphatase 1/GADD34, preparation and uses thereof” (Institut Gustave Roussy, priority 2007, dated 2008).

Tested on: CRT and/or ERp57
Assay: Immunofluorescence staining of unfixed human tumour cell lines
Format: cell-based
Details: variety of human tumour cell lines

## O=C1c2c(O)ccc(O)c2C(=O)c2c(NCCNCCO)ccc(NCCNCCO)c21 [mitoxantrone]
  exposure of CRT and/or ERp57 on the cell surface: expose CRT and/or ERp57 on the surface
